Measured values as given in publication PMC9457941, “Synthesis and Kinase Inhibitory Potencies of Pyrazolo[3,4-g]isoquinolines” (Molecules, 2022).

Target: T1, Haspin-kd (human, kinase domain, amino acids 470–798) (Homo sapiens, UniProt Q8TF76)
T1 construct: Haspin-kd (human, kinase domain, amino acids 470–798, recombinant, expressed in bacteria); host or cells: bacteria
T1 sequence (Q8TF76 470-798): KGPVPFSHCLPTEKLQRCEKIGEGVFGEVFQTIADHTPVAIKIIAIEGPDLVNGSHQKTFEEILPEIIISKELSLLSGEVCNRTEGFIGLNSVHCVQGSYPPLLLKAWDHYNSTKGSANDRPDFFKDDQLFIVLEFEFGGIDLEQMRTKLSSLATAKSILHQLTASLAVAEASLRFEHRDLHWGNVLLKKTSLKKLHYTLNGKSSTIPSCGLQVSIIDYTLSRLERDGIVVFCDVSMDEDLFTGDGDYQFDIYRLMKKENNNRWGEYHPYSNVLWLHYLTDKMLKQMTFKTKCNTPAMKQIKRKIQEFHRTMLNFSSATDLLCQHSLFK
Experiment: ADP-Glo kinase inhibition assay, Haspin
Type: biochemical
Conditions: Haspin vs. CLK1, from IC50 values of reference 2
Protocol: Kinase enzymatic activities were assayed in 384 well plates using the ADP-GloTM assay kit (Promega, Madison, WI, USA) according to the manufacturer’s guidance. Briefly, the reactions were carried out in a final volume of 6 μL for 30 min at 30 °C in an appropriate kinase buffer (10 mM MgCl2, 1 mM EGTA, 1 mM DTT, 25 mM Tris-HCl pH 7.5, 50 μg/mL heparin), with either protein or peptide as substrate in the presence of 10 μM ATP (40 mM Tris pH 7.5, 20 mM MgCl2 and 0.1 mg/mL of BSA). Afterward, 6 μL of ADP-GloTM Kinase Reagent was added to stop the kinase reaction. After an incubation time of 50 min at room temperature (RT), 12 μL of Kinase Detection Reagent was added for 1 h at RT. The transmitted signal was measured using the Envision (Perkin Elmer, Waltham, MA, USA) microplate luminometer and expressed in relative light unit (RLU). In order to determine the half maximal inhibitory concentration (IC50), the assays were performed in duplicate in the absence or presence of increasing doses of the tested compounds. GraphPad Prism6 software (GraphPad Software, San Diego, CA, USA) was used to fit dose–response curves and to determine the IC50 values. Kinase activities are expressed in the percentage of maximal activity, i.e., measured in the absence of an inhibitor. Peptide substrates were obtained from Proteogenix (Schiltigheim, France).

CSc1ncc2cc3cnccc3c([N+](=O)[O-])c2n1 [II, reference compound]
Selectivity Index (SI) Haspin vs. CLK1 = CLK1 IC50/Haspin IC50: 1.9
